For this test, the target named is T1, TET proteins, everted membrane vesicles of E. coli strain D1-209 bearing the Class B tetracycline resistance determinant (Escherichia coli, UniProt P02980).
T1 construct: Everted vesicles, to which the TET proteins responsible for tetracycline efflux are attached; endogenous in cells; host or cells: E. coli strain D1-209 (everted inner membrane vesicles)
Nature of the test: biochemical.

Amino acid sequences for entries named in this document (tags omitted). A change or cut given only in a name is not applied to a line headed by its entry.
UniProt P02980: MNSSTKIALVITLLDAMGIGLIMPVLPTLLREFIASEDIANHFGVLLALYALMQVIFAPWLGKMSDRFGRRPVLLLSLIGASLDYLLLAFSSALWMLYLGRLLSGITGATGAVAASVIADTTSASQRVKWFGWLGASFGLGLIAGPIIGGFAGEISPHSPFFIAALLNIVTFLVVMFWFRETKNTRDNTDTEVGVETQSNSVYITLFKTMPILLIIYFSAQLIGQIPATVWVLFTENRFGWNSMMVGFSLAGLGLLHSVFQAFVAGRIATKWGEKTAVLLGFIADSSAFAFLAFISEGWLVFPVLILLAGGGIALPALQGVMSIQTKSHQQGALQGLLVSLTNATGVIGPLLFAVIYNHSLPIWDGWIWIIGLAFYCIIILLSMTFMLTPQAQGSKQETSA

As a reminder, the IC50 is the midpoint of a concentration-inhibition curve. The low end stands for greater potency in that assay, the high end for weaker potency in that assay.

`CC1c2cccc(O)c2C(=O)C2=C(O)C3(O)C(=O)C(C(N)=O)=C(O)C(N(C)C)C3C(OC(=O)Cc3ccccc3)C21` (stereo not shown) [Cmpd 3] returned an IC50 of 1600 nM.

These data come from patent publication US7732429B2 (Trustees of Tufts College, priority 1994, dated 2010).
